Earlier results in patent publication US9213031B2, “Use of Cbl as biomarker for identifying subject suitable for treatment with anti-c-Met antibody” (SAMSUNG ELECTRONICS CO., LTD., priority 2012, dated 2015).
Where two headings read alike, the source gives them in different places.

Test system: lung cancer patients LXFE1422, LXFA526, LXFA1647
Details: cited from earlier work

Cetuximab: an EGFR-targeting anticancer therapeutic
resistance to Cetuximab (LXFA526 patient): cannot be treated with Cetuximab due to their resistance | resistance to Cetuximab (LXFA1647 patient): cannot be treated with Cetuximab due to their resistance | resistance to Cetuximab (LXFE1422 patient): not resistant
